{
  "sequences": {"note": "Sequences of proteins named here, by UniProt entry; tags and fusion partners are left off. Residues count along the entry.", "UniProt P41180, 20-1078 limits assumed": "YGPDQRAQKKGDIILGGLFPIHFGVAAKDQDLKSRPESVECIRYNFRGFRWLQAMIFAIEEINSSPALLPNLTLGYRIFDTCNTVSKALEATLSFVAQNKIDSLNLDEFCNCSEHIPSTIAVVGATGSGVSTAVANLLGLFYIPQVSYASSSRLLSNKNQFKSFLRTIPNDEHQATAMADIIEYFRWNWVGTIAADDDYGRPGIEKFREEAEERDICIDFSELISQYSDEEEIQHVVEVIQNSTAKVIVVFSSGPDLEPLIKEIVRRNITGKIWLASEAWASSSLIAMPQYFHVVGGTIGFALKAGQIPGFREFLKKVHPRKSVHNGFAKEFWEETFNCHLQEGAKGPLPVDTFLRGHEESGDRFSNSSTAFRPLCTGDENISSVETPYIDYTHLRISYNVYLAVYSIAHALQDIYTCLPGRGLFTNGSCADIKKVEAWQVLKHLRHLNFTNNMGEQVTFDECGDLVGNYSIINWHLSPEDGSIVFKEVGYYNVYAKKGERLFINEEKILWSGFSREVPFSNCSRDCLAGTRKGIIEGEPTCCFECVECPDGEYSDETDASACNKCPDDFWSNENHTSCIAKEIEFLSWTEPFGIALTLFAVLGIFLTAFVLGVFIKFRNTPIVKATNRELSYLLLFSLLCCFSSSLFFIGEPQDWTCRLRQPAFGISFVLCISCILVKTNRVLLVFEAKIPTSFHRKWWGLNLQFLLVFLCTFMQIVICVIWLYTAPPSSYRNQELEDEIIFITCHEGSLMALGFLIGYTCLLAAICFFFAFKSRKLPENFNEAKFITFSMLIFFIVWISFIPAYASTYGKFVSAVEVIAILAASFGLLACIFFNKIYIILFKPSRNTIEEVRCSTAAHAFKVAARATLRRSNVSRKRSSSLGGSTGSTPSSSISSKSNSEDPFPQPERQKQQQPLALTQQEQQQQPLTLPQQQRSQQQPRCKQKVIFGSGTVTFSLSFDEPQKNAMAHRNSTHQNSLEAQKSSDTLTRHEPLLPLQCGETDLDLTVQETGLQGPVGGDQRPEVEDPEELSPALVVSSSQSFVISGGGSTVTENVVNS"},
  "source": "patent US7829572B2",
  "about": "(Pfizer Inc, priority 2006, dated 2010)",
  "molecular_target": "calcium receptor (CasR) (Homo sapiens, UniProt P41180)",
  "assay": "FLIPR Assay for Evaluating the Potency and Selectivity of Test Compounds",
  "conditions": "read-out: FLIPR IC50; HEK 293 cells expressing CasR; 30 minutes pre-incubation; stimulation by 1.7 mM Ca2+; read 42 seconds after stimulation",
  "excerpt": "FLIPR Assay for Evaluating the Potency and Selectivity of Test Compounds\nHuman kidney cell (HEK 293) expressing the calcium receptor (CasR) are used to detect antagonists of the receptor using Fluorometric imaging plate reader (FLIPR, Molecular Devices, Sunnyvale Calif.). Receptor activation by extracellular calcium results in the release of calcium from intracellular stores into the cytosol. A fluorescent indicator (Fluo-4) is internalized by the cells from growth media and interacts with calcium released into the cytosol to provide a means of quantifying intracellular Ca^2+ levels and receptor agonism/antagonism. Fluorescence intensity is detected by the FLIPR CCD camera and traced as a function of time. Potential antagonists are identified by their ability to decrease this fluorescent response.\nTo determine the IC50 values cells are loaded with Fluo4 (2.05 mM Fluo-4, 0.04% pluronic acid, 2.6 mM probenecid in 90% DMEM high glucose, 10% dialyzed Fetal Bovine Serum, 1× Pen Strep, 1×L-Glutamine, 3 ug/ml Puromycin, 27.5 nM Methotrexate) for 1 hour at 37° C. Prior to the addition of test compound cells are washed with a 10 mM HEPES buffer solution. The test compound, for example the compound of Example 1, is added at various doses (from 1 µM to 3 nM) and pre-incubated with cells for 30 minutes followed by stimulation of the CasR by the addition of 1.7 mM Ca^2+. […]",
  "data": [
    {"compound": "CC(Cc1ccccc1F)n1c(-c2cscn2)nc2ccnc(C(F)(F)F)c2c1=O", "note": "(single isomer, unassigned)", "values": [
      {"measurement": "IC50", "result": 0.32, "unit": "µM"}
    ]}
  ]
}
